Source: US9957288B2, “Pyrabactin analogues to modulate plant development” (Universiteit Gent, priority 2014, dated 2018)

Experiments:
[1] = test system: Arabidopsis thaliana Columbia (Col0) seedlings; test: Lateral root initiation (lateral roots + lateral root primordia, number and density); assay type: in vivo; settings: 13 d old etiolated seedlings, 10 μM
tobacco epidermal strips = test: Stomatal closure assay on epidermal strips; assay type: cell-based, Nicotiana tabacum; settings: 10 μM; for Stomata: compared with control not-treated epidermal strips
[2] = test system: Arabidopsis thaliana seedlings; test: Seedling shoot development (shoot area, leaves); settings: 10 μM, compared with control not-treated seedlings
[3] = test system: Arabidopsis thaliana seeds; test: Arabidopsis thaliana seed germination assay; assay type: in vivo; settings: 10 μM, compared with control not-treated seeds
[4] = test system: Arabidopsis thaliana Columbia (Col0) seedlings; test: Primary root elongation of etiolated seedlings on compound medium; assay type: in vivo; settings: 10 μM; for PR: primary root, compared with control not-treated seedlings
[5] = test system: etiolated Arabidopsis thaliana seedlings; test: Adventitious root initiation in etiolated seedlings; settings: 10 μM; for AR: adventitious root, compared with control not-treated seedlings

CCOP(=O)(NCc1ccccn1)c1ccccc1 (stereo not shown)
effect on LR+ LRP density (per cm primary root) [1]: reduced the numbers of LR+ LRP similarly to ABA | effect on number of LR+ LRP (lateral root initiation) [1]: modest to weak inhibitors of lateral root formation | effect on stomatal aperture (tobacco epidermal strips): did not affect the size of the stomatal aperture | Stomata (tobacco epidermal strips): + | Shoot [2]: 0 | Seed germination [3]: + | effect on primary root growth [4]: did not show a significant effect | PR [4]: 0 | AR [5]: 0

CCOP(=O)(NCc1ccccn1)c1ccc(Br)cc1 (stereo not shown)
effect on LR+ LRP density (per cm primary root) [1]: reduced the numbers of LR+ LRP similarly to ABA | effect on number of LR+ LRP (lateral root initiation) [1]: modest to weak inhibitors of lateral root formation | effect on stomatal aperture (tobacco epidermal strips): intermediate stomatal closure | Stomata (tobacco epidermal strips): ++ | Shoot [2]: 0 | Seed germination [3]: 0 | effect on primary root growth [4]: slight, but significant increase in primary root length | PR [4]: 0 | effect on adventitious root formation [5]: no effect | AR [5]: 0
